Experimental data taken from ChEMBL document CHEMBL4819101, “Design, synthesis and molecular docking studies of thymol based 1,2,3-triazole hybrids as thymidylate synthase inhibitors and apoptosis inducers against breast cancer cells” (Bioorg Med Chem, 2021).

Amino acid sequences for entries named in this document (tags omitted). A change or cut given only in a name is not applied to a line headed by its entry.
UniProt P04818: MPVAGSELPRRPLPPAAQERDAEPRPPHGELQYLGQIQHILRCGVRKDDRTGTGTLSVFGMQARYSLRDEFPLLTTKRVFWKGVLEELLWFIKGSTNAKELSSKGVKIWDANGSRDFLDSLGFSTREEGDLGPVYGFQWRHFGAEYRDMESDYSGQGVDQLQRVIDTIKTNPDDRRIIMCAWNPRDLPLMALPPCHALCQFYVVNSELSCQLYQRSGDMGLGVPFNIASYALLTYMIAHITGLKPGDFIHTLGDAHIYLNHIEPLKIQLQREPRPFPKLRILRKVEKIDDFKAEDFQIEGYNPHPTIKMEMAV

Molecular target: Thymidylate synthase (Homo sapiens, UniProt P04818)
Assay: Potency index, ratio of pemetrexed IC50 to test compound IC50 for inhibition of thymidylate synthase (unknown origin) by spectrophotometric analysis

| Structure (SMILES) | Ratio IC50 |
| --- | --- |
| Cc1ccc(C(C)C)c(OCc2cn(-c3ccccc3C)nn2)c1 | 2.4 |
| Cc1ccc(C(C)C)c(OCc2cn(-c3cccc(C(=O)O)c3)nn2)c1 | 1.26 |
